{"source": "patent US9399032B2", "about": "“Methods and compositions for treating degenerative and ischemic disorders” (The General Hospital Corporation, priority 2009, dated 2016)", "key": {"MCH58 fibroblasts [1]": {"system": "MCH58 fibroblasts", "assay": "Glucose versus galactose cell growth screen (metabolic state-dependent lethality)"}, "MCH58 fibroblasts [2]": {"system": "MCH58 fibroblasts", "conditions": "human"}}, "note": "Values joined by “and” are separate entries in the source; they are usually repeats but may differ in a detail not shown here. Equal values may be shown once."}
{"substance": "Antimycin A", "values": [{"measurement": "Sglu/gal (log10 fold change) Score", "setting": "MCH58 fibroblasts [1]", "result": "0.70 and 0.87"}, {"measurement": "LD50 in galactose-rich media as compared to glucose-rich media", "setting": "MCH58 fibroblasts [2]", "result": "at least four orders of magnitude lower"}]}
